Our source for the percent decrease in binding relative to WT KAP1 values is article PMC7305985.

This assay has as its target FLAG-tagged KAP1 ΔRB. Put plainly: co-IP.

As for “RPB1 subunit of RNA polymerase II (Pol II), endogenous (from UniProt P24928 1-1970) (natural protein)”, the percent decrease in binding relative to WT KAP1 came out at 30%.
